Target: T1, 5-hydroxytryptamine receptor 2C (Rattus norvegicus, UniProt P08909)
T1 sequence (P08909 whole entry): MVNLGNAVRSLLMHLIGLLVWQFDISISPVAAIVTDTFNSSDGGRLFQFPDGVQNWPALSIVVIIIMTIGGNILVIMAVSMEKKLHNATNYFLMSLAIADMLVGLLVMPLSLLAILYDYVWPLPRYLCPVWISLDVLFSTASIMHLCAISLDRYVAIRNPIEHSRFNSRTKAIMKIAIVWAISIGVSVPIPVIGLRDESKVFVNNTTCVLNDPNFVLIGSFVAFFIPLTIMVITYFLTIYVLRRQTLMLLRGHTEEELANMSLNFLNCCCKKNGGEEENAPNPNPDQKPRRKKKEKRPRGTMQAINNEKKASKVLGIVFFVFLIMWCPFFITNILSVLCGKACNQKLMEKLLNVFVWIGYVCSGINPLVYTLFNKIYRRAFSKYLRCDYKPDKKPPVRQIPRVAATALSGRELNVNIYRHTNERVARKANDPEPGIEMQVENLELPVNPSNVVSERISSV
Experiment: Affinity against 5-hydroxytryptamine 2C receptor in J1 cells transfected with the rat 5-HT2C gene labeled with [3H]mesulergine.
Type: cell-based
In short: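 Homogenates of J1 cells carrying the rat 5-HT1C (5-HT2C) gene, labeled with [3H]mesulergine. Competing drug and radioligand incubated at 37 °C for 30 min, then filtered through glass-fiber filters and counted by liquid scintillation. Ki given as mean and SEM of at least two experiments, each done in triplicate.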

## COc1ccc2[nH]cc(CCN)c2c1 [5-METHOXYTRYPTAMINE]
  Ki: 500 nM
